Source: patent US20250115669A1, “FGFR1/KLB Targeting Agonistic Antigen-Binding Proteins and Conjugates Thereof with GLP-1R Agonistic Peptides” (SANOFI, priority 2020, published 2025)

Target: T1, human beta-Klotho (Homo sapiens, UniProt Q86Z14)
T1 sequence (Q86Z14 1-1044): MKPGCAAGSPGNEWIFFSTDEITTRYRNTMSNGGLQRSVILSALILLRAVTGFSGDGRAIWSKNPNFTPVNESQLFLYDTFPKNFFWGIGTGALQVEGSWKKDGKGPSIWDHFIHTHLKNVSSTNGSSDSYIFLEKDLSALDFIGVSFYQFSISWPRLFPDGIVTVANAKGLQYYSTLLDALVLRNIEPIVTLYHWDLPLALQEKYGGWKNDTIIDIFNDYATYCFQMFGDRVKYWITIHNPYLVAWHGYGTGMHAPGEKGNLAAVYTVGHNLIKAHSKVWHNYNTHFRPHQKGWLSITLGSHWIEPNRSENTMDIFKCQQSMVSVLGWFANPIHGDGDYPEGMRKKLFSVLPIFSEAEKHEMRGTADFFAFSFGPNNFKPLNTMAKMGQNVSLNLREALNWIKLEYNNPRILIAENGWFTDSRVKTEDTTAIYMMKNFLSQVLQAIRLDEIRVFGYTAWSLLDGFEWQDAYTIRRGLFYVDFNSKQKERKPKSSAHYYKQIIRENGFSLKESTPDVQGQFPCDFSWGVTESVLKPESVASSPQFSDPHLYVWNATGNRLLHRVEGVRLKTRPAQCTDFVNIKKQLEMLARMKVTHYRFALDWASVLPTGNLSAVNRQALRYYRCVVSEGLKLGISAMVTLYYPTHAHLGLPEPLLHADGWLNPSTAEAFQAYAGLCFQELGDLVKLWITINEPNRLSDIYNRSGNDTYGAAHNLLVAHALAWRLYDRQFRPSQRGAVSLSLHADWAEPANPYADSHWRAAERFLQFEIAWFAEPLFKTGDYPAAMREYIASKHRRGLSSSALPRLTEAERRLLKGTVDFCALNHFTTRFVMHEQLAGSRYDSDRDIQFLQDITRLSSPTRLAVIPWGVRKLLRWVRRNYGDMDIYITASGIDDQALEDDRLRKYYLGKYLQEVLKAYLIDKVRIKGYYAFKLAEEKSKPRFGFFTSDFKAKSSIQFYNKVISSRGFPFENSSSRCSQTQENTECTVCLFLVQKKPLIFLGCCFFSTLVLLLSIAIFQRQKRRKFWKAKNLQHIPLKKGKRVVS
Assay: SPR binding affinity and kinetics to human beta-Klotho (Biacore 8K, anti-human Fc capture)
Conditions: 1:1 binding model, read-out: KD human KLB
Description: Binding affinity and kinetics were measured on a Biacore 8K instrument (GE Healthcare). For the affinity capture of the diluted mAb sample, an anti-human Fc antibody (human antibody capture kit, GE Healthcare) was immobilized on all eight channels of a series S CM5 sensor chip (GE Healthcare) to approximately 10.000 RU. The anti-beta-Klotho antibodies were diluted into HBS-EP+ assay buffer (GE Healthcare) to 0.04 μg/mL. The antibodies were injected in the sample compartment, whereas the reference compartment was used without captured antibody. […] For the antigen inject the flow rate was adjusted to 60 μL/min with an association time of 180 sec and a dissociation time of 1800 sec. The maximum binding signal of beta-Klotho was in the range of 30 RU. […] Binding kinetics data were evaluated with a 1:1 binding model using the Biacore 8K Evaluation Software version 1.1.1.7442 (GE Healthcare).
For interaction analysis with human beta-klotho, mAbs were captured via an anti-human Fc antibody immobilized on a series S CM5 sensor chip (human antibody capture kit, GE Healthcare). […] Binding kinetics data were evaluated with a 1:1 binding model using the Biacore 8K Evaluation Software version 1.1.1.7442 (GE Healthcare). […] Binding kinetics data were evaluated with a 1:1 binding model using the Biacore 8K Evaluation Software version 1.1.1.7442 (GE Healthcare). […]

## 16H7: anti FGFR1c/KLB monoclonal antibody of WO 2011/071783, IgG2 backbone; HC SEQ ID NO: 1, LC SEQ ID NO: 2 [Ab 16H7]
  Kd: 0.026 nM
